Structures can show the parent of a compound that is named as a salt.
Assay: bioavailability of IP3 in pigs: blood concentration of IP3 and AUC after intravenous, intraduodenal or oral administration
Conditions: pig, in vivo
Protocol: The bioavailability of N(3-dodecanoyloxy)propyltrimethylammonium inositol trisphosphate (obtained according to Example 1) after oral administration was determined in an experiment with pigs. Five pigs were given an intravenous injection of the sodium salt of D-myo-inositol-1.2.6-trisphosphate (IP3) and blood samples were collected 0.25 hr, 0.5 hr, 1 hr, 4 hrs, 6 hrs, 8 hrs and 24 hrs after the injection. The blood samples were assayed for the content of IP3 and these measurements were used for the calculation of the reference data as 100% of the substance is introduced into the blood stream after an intravenous injection.
Another five pigs were given the N(3-dodecanoyloxy)propyltrimethyl ammonium salt of IP3 as an intraduodenal dosing. The animals were treated with Atropin® and anaesthetized with Hypnodil®/Sedaperone® whereafter a laparotomy was carried out. Blood samples were collected at the time intervals mentioned above and the concentration of IP3 was determined in each sample. By calculating the area under the curve (AUC) from a graph where the concentration versus time is shown and comparing the obtained value with a similar calculation from the data after intravenous injection of the substance the bioavailability for the specific formulation is obtained.
Still another five pigs were given the penta-sodium salt of IP3 orally. Blood samples were collected at the same time intervals as above and the concentration of IP3 was determined. Following a similar procedure the AUC was determined.
The bioavailability of N-(hexyloxycarbonyl)methyl trimethyl ammonium inositol trisphosphate after oral administration was determined with a method similar to the description in Example 2. […] Blood samples were collected and the concentration of IP3 were determined.
The bioavailability of a formulation consisting of dodecyldimethyl amine and D-myo-inositol-1.2.6-trisphosphate (IP3) after oral administration was determined with a method similar to the description in Example 2. […] Blood samples were collected and the concentration of IP3 were determined.

Molecule | concentration at 6 h (iv) | concentration (iv, 6 h) | concentration (8 h)
O=P(O)(O)O[C@@H]1[C@H](OP(=O)(O)O)[C@H](O)[C@@H](O)[C@H](O)[C@H]1OP(=O)(O)O [sodium salt, pentasodium salt of D-myo-inositol-1.2.6-triphosphate] | 1100 nM | 1100 nM | –
N-(hexyloxycarbonyl)methyl trimethyl ammonium inositol trisphosphate | – | – | 600 nM

— US5614510A, “Pharmaceutical composition with improved bioavailability of inositol phosphate” (priority 1992, dated 1997)
